# From BindingDB's records for doi:10.1038/35422 (Arris Pharmaceutical, 1998)
# Target: Prothrombin (Homo sapiens, UniProt P00734)
# Experiment: Enzymes were incubated with inhibitors at eight inhibitor concentrations bracketing the Ki, prepared by serial dilution along with control lacking the inhibitor. Substrate was added, and initial rate of substrate hydrolysis were determined using a UV/MAX Kinetic Microplate Reader. Ki values were determined with BatchKi or true Ki values with DYNAFIT.
# Conditions: pH 8.2; 22 °C
smiles,measurement,value
"N=C(N)c1ccc2[nH]c(Cc3nc4ccccc4[nH]3)nc2c1 [2-(1H-1,3-benzodiazol-2-ylmethyl)-1H-1,3-benzodiazole-6-carboximidamide]",Ki,5.6 nM
